The chains behind the UniProt entries cited, without tags or fusion partners.
UniProt Q02563, whole entry: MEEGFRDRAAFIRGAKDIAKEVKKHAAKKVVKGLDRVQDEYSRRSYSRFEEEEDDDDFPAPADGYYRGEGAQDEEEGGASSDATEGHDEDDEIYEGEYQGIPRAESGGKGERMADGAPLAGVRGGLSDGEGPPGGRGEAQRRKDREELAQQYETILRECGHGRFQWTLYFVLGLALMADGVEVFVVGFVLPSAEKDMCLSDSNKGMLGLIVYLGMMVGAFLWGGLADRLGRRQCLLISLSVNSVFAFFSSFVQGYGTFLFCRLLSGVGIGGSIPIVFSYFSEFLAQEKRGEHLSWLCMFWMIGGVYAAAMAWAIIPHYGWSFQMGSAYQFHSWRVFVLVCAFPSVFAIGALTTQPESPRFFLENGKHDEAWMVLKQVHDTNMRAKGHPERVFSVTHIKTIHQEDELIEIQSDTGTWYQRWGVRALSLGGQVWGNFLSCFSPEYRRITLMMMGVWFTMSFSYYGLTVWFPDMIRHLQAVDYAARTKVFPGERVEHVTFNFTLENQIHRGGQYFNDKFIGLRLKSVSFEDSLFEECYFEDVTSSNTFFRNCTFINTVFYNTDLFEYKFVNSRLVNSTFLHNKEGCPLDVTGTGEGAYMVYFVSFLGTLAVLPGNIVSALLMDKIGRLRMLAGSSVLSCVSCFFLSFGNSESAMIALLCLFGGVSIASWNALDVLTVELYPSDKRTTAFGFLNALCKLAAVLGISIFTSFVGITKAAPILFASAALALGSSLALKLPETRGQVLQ

According to patent US7090985B2, “Methods for the identification of agents for the treatment of seizures, neurological diseases, endocrinopathies and hormonal diseases” (UCB, S.A., priority 2002, dated 2006):

Biological target: T1, LBS (Rattus norvegicus, UniProt Q02563)
T1 construct: from tissue; host or cells: rat brain (crude membranes; 25 µm brain slices for autoradiography)
Assay: Autoradiography of [3H]ucb 30889 binding on rat brain sections
Conditions: unlabeled levetiracetam
Experimental: To identify and characterize the LBS in situ, ^[3H]ucb 30889 was used to map the LBS within the brain and to study both its cellular and subcellular distribution. […] Binding assays with rat brain membranes and various neuronal cell lines were performed under similar conditions. […] For photolabeling, membranes were incubated with […] ^[3H]ucb 30889 for 120 min at 4° C. in the same buffer, followed by irradiation with UV-light for 30 min.

For CC[C@@H](C(N)=O)N1CCCC1=O [levetiracetam, (S)-α-ethyl-2-oxo-1-pyrrolidine acetamide], the “inhibition of [3H]ucb 30889 binding” value was “concentration dependent inhibition; also recorded: can be inhibited”.

“Also recorded” adds a separate entry of the source.
